Laboratory results from PubChem BioAssay (Tox21).
“And” between values parts separate entries of the source, which are not always exact repeats. Equal values may be shown once. The entries are a selection whose mix differs from that of the whole data set. Inconclusive results are not listed. The source made the active and inactive calls. Unless noted, the call rests on the fitted dose curve; in most records, active means well fitted curve in the direction sought with a large enough effect in the repeat runs; inconclusive means weak or mixed curves; inactive means no such curve, though single readings can be large; an effect the other way counts as inactive or inconclusive.

Chains of the proteins cited; added tags and fusions are not shown.
UniProt Q14994, whole entry: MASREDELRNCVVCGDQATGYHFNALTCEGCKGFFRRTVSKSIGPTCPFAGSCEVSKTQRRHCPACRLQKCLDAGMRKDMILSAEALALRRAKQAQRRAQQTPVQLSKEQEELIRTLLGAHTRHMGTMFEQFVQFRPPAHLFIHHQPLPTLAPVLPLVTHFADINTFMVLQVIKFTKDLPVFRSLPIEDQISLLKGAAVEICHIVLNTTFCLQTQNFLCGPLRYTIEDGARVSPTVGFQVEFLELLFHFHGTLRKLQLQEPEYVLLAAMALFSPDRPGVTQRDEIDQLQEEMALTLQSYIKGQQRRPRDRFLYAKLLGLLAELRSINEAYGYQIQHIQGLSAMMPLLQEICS
UniProt O75469, whole entry: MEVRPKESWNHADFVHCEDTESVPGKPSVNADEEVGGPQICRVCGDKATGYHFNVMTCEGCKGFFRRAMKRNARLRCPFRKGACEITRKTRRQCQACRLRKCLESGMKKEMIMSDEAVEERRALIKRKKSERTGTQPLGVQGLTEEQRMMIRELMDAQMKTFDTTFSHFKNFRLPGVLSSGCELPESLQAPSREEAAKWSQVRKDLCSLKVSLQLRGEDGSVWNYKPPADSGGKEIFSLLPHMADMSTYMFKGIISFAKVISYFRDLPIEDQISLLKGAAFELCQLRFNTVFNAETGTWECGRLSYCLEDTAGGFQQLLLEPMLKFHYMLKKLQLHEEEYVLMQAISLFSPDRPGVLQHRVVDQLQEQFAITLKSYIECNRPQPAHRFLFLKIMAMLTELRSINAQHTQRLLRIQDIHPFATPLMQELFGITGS

Columns and labels:
[1] = qHTS assay to identify small molecule antagonists of the retinoid-related orphan receptor gamma (ROR-gamma) signaling pathway - cell viability counter screen (AID 1159520); conditions: Tet-on RORgamma CHO cells viability, ATP luminescence, 16 h; further: nearly all actives have a fitted effect of over 50% in size
In short: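 Cytotoxicity was read from cellular ATP (CellTiter-Glo luminescence) after 16 hr at 37 C with 1 uM doxycycline induction. The inducer was added 2 hr after compound transfer to Tet-on ROR gamma CHO cells.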

[2] = qHTS assay to identify small molecule agonists of the AP-1 signaling pathway (AID 1159526; calls by dose curve); conditions: ME-180 (cervical carcinoma) AP-1-bla reporter, beta-lactamase FRET ratio, 5 h
[3] = qHTS assay to identify small molecule agonists of the RXR signaling pathway - cell viability counter screen (AID 1159529); conditions: RXR-alpha-bla HEK293T viability, CellTiter-Glo, 16 h; further: nearly all actives have a fitted effect of over 50% in size
In short: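 CellTiter-Glo luminescence gave viability in the wells also read for beta-lactamase. Cells (RXR-alpha-UAS-bla HEK 293T, 2% charcoal-stripped FBS medium) had 5 hr plating, then 16 hr compound exposure at 37 C; tetraoctyl ammonium bromide served as positive control.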

[4] = qHTS assay to identify small molecule antagonists of the retinoic acid receptor (RAR) signaling pathway (AID 1159552; further: nearly all actives have a fitted effect of over 50% in size); conditions: C3RL4 RARE luciferase reporter, retinol-stimulated, 6 h
In short: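 Luminescent RARE reporter read-out in C3RL4 cells: 6 hr co-treatment at 37 C of test compounds with retinol at 1 uM final. Cells plated overnight beforehand; luciferase reagent incubated 30 min at room temperature before reading.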

[5] = qHTS assay to identify small molecule antagonists of the estrogen related receptor (ERR) signaling pathway from Tox21 library - cell viability counter screen (AID 1224834); conditions: ERR reporter cells viability, CellTiter-Fluor, 17.5 h; further: nearly all actives have a fitted effect of over 30% in size
In short: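 Cytotoxicity of test substances is gauged in the same ERR cells used for the antagonist screen, after 17.5 h of compound treatment at 37 C, by CellTiter-Fluor fluorescence measured after 30 min.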

[6] = qHTS assay to identify small molecule agonists of the constitutive androstane receptor (CAR) signaling pathway - cell viability counter screen (AID 1224836); conditions: HepG2-CYP2B6-hCAR viability, CellTiter-Fluor, 23 h; PK11195 added to every well; further: nearly all actives have a fitted effect of over 45% in size
In short: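 Cell viability multiplexed with the CAR agonist screen: CellTiter-Fluor fluorescence after 23 hr at 37 C. HepG2-CYP2B6-hCAR cells got compounds at 15 concentrations with PK11195 at 0.75 uM final.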

[7] = qHTS assay to identify small molecule antagonists of the constitutive androstane receptor (CAR) signaling pathway - cell viability counter screen (AID 1224837); conditions: HepG2-CYP2B6-hCAR viability, CellTiter-Fluor, 23 h; co-treated with 50 nM CITCO; further: nearly all actives have a fitted effect of over 45% in size
In short: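 Multiplexed cytotoxicity read-out for the CAR antagonist screen: double-stable HepG2-CYP2B6-hCAR cells co-treated with 50 nM CITCO (final) and compound over 15 concentrations, incubated 23 hr, then assessed by CellTiter-Fluor fluorescence.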

[8] = target: Nuclear receptor subfamily 1 group I member 3 (Homo sapiens) (UniProt Q14994); test: qHTS assay to identify small molecule antagonists of the constitutive androstane receptor (CAR) signaling pathway (AID 1224838); conditions: HepG2-CYP2B6-hCAR luciferase, CITCO-stimulated, 24 h;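 further: HepG2 cells stably expressing hCAR with CYP2B6 luciferase reporter stimulated by CITCO; nearly all actives have a fitted effect of over 40% in size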
[9] = qHTS assay to identify small molecule agonists of the estrogen related receptor signaling pathway with the pleiotropic PPARgamma coactivator (PGC) from Tox21 10K library (AID 1224842); conditions: PGC/ERR reporter cell line, luciferase ONE-Glo, 18 h; further: nearly all actives have a fitted effect of over 15% in size
In short: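 Luminescence from One-Glo (30 min, room temperature) measured after PGC/ERR cells had 18 h at 37 C with pinned compound (23 nL in DMSO). Cells had been seeded at 2,000 per well and pre-incubated 6 h.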

[10] = qHTS assay to identify small molecule antagonists of the estrogen related receptor (ERR) signaling pathway from Tox21 library (AID 1224848); conditions: ERR reporter cell line, luciferase antagonist mode, 18 h; further: nearly all actives have a fitted effect of over 50% in size
In short: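 Reading was by luminescence 30 min after ONE-Glo addition. Before that, ERR cells at 2,000 per well had rested 6 h at 37 C/5% CO2 and then received pin-tooled compounds in DMSO for 18 h at 37 C.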

[11] = qHTS assay to identify small molecule agonists of the sonic hedgehog signaling (Shh) pathway - cell viability counter screen (AID 1259366); conditions: NIH/3T3 Gli1-Luc viability, CellTiter-Fluor, 24 h; series mostly up to 92.4 µM; further: nearly all actives have a fitted effect of over 50% in size
In short: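 Cytotoxicity counter screen: CellTiter-Fluor reagent added after 23 h compound exposure, then 1 h at 37C and fluorescence read. Cells were 3T3 Gli1-Luc, seeded 2,000 per well and dosed 4 h post-plating.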

[12] = qHTS assay to identify small molecule antagonists of the sonic hedgehog signaling (Shh) pathway - cell viability counter screen (AID 1259367); conditions: NIH/3T3 Gli1-Luc viability, CellTiter-Fluor, 24 h; further: nearly all actives have a fitted effect of over 55% in size
In short: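 Using CellTiter-Fluor, viability of Gli1-Luc reporter 3T3 cells is read by fluorescence in the wells used for the Shh luciferase assay. Treatment lasts 23 hr with conditioned medium, then reagent 1 hr at 37C.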

[13] = qHTS assay to identify small molecule agonists of the androgen receptor (AR) signaling pathway in the presence of an antagonist - cell viability counter screen (AID 1259379); conditions: MDA-kb2 viability, CellTiter-Fluor, 16 h; further: nearly all actives have a fitted effect of over 25% in size
In short: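 Fluorescence from CellTiter-Fluor, added after 15 hr and read 1 hr later, gave cell viability. Cells were MDA-kb2 exposed to compounds (15 concentrations) in the presence of 3.0uM nilutamide at 37C, 0% CO2.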

[14] = qHTS assay to identify small molecule agonists of the TGF-beta/Smad signaling pathway - cell viability counter screen (AID 1346829); conditions: SBE-bla HEK293T viability, CellTiter-Glo luminescence, 5 h; further: nearly all actives have a fitted effect of over 45% in size
In short: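 In parallel with the Smad reporter read, viability of HEK 293T cells stably carrying SBE-bla is quantified by ATP luminescence following 5 hr compound treatment.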

[15] = Human pregnane X receptor (PXR) small molecule agonists, qHTS cell viability counter screen (AID 1346977); conditions: PXR-Luc HepG2 viability, CellTiter-Fluor, 24 h; further: nearly all actives have a fitted effect of over 50% in size
In short: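 Same-well viability read: CellTiter-Fluor added after 23 hr compound exposure, fluorescence measured 1 hr later. Cells were PXR-Luc HepG2 seeded at 2,000/well in 5% charcoal-stripped FBS medium, rested 5 hr before dosing at 37 C.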

[16] = Caspase-3/7 induction in CHO-K1 cells by small molecules, qHTS cell viability counter screen (AID 1346979); conditions: CellTiter-Fluor fluorescence, 17 h; further: nearly all actives have a fitted effect of over 35% in size
In short: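 Cytotoxicity counter screen: CellTiter-Fluor added to compound-treated wild-type CHO-K1 cells at 16 h (37C, 5% CO2), fluorescence measured 1 h later; same wells as caspase-3/7 measurement.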

[17] = Caspase-3/7 induction in CHO-K1 cells by small molecules, qHTS assay (AID 1346980); conditions: CHO-K1 caspase-3/7 induction, Caspase-Glo luminescence, 17 h; further: nearly all actives have a fitted effect of over 15% in size
In short: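 Luminescent Caspase-Glo 3/7 read (30min, room temperature) quantified apoptosis induction. Cells were wild-type CHO-K1, treated with compound for 17hr at 37 C and 5% CO2.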

[18] = Caspase-3/7 induction in HepG2 cells by small molecules, qHTS cell viability counter screen (AID 1346981); conditions: CellTiter-Fluor fluorescence, 17 h; further: nearly all actives have a fitted effect of over 30% in size
In short: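 Steps: seed 2,000 HepG2 cells per well; incubate 5 hr at 37 C; pin-add compounds in DMSO; incubate 16 hr; add CellTiter-Fluor; after 1 hr at 37 C and 5% CO2, read fluorescence.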

[19] = target: Nuclear receptor subfamily 1 group I member 2 (Homo sapiens) (UniProt O75469); test: Human pregnane X receptor (PXR) small molecule agonists, qHTS assay (AID 1346982); conditions: PXR-Luc HepG2, CYP3A4 luciferase reporter, 24 h; further: nearly all actives have a fitted effect of over 35% in size
In short: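 Agonist mode qHTS: PXR-Luc HepG2 cells plated 5 hr before DMSO-dissolved compounds were pinned in, cultured 24 hr at 37 C, 5% CO2; ONE-Glo luminescence readout.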

Measured: Potency
Potency means the concentration at half of the fitted maximal effect.

CN(CCCl)CCCl
active: [1] 21.6 µM and 13.3 µM | [2] 23.9 µM | [3] 43.6 µM | [4] 48.5 µM | [5] 43.2 µM | [6] 54.4 µM | [7] 54.4 µM | [8] 54.4 µM | [9] 11.9 µM | [10] 43.2 µM | [11] 27.3 µM | [12] 30.6 µM | [13] 27.3 µM and 26.6 µM | [14] 54.8 µM | [15] 24.3 µM | [16] 27.3 µM and 29.8 µM | [17] 68.5 µM | [18] 21.6 µM and 29.8 µM | [19] 8.62 µM
